System: HCT116 p53KO cells
Test: Cell growth inhibition, HCT116 p53KO
Conditions: Homo sapiens, HCT-116, read-out: HCT116 p53KO IC50 (μM), HCT116 p53KO; single runs and mean ± SD line

SMILES: COC(C)(C)C[C@H]1N[C@@H](C(=O)NCC[C@H](O)CO)[C@H](c2ccc(F)c(Cl)c2)[C@@]12C(=O)Nc1cc(Cl)c(F)cc12 [MI-319-7]
- IC50: > 30 µM
